Experimental data reported in patent publication US20150011566A1, “N-PHENYLPIPERAZINE DERIVATIVES THAT ARE ANTAGONISTS OF A1A, A1D ADRENOCEPTORS AND 5-HT1A RECEPTORS FOR THE TREATMENT OF BENIGN PROSTATE HYPERPLASIA, PHARMACEUTICAL COMPOSITIONS CONTAINING THE SAME” (UNIVERSIDADE FEDERAL DO RIO DE JANEIRO-UFRJ, priority 2012, published 2015).

Sequences of proteins named here, by UniProt entry; tags and fusion partners are left off.
UniProt P15823, whole entry: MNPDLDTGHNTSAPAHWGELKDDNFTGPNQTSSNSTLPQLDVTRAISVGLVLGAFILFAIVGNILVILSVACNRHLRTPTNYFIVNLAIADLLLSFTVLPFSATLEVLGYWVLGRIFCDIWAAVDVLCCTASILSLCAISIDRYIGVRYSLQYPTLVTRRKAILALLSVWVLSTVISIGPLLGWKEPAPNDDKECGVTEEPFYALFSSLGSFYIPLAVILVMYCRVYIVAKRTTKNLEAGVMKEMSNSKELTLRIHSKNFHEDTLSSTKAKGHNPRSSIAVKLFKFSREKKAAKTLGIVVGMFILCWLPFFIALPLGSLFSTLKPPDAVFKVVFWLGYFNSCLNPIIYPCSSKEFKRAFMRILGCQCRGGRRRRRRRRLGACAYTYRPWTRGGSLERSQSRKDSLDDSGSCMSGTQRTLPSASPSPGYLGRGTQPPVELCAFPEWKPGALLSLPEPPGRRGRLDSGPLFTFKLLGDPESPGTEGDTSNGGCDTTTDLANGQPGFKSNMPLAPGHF

How the values were obtained:
α1A adrenoceptors = molecular target: T1, α1A adrenoceptors (Oryctolagus cuniculus, UniProt O02824); test: Binding of [3H]-prazosin to α1A adrenoceptors (rabbit liver membranes); details: saturation assay
T1 construct: from tissue; host or cells: rabbit liver membranes
T1 sequence (O02824 1-466): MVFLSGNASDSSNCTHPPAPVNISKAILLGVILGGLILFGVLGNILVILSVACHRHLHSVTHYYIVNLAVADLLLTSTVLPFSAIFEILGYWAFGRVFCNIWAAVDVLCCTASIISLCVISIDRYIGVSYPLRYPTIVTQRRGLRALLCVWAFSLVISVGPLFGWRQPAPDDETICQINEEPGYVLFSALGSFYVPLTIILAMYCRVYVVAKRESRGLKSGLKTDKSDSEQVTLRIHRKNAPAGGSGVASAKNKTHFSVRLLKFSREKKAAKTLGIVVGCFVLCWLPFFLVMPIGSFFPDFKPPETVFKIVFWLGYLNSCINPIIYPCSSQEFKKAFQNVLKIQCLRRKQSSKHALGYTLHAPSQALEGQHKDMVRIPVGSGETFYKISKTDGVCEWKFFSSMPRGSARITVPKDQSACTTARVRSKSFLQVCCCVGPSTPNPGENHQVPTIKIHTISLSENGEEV
Protocol: Following the protocol described previously in the literature, membrane preparations from rabbit liver homogenates were obtained. Such membrane preparations are enriched in adrenoceptor subtype α1A. The tissue obtained as described above (˜30 g) was naturally thawed, immersed in thawing solution (0.25 M sucrose, 1 mM EGTA and 5 mM Tris (pH 7.4)) freezing. Then, the tissue was transferred to a petri dish on ice containing solution for homogenizing liver (2 mM EDTA, 100 mM NaCl and 50 mM Tris (pH 7.4)) freezing. The liver was then carefully cut by ignoring the most fibrous part.
Then, the material was transferred into a beaker where with the aid of Ultra-Turrax homogenizer (speed 24,000 RPM), the tissue was homogenized with the same buffer solution at a ratio of 6 parts of the solution to 1 part material. The material was homogenized three times for 20 seconds; in the intervals the solution was allowed to stand for 1 minute on ice. […]
In both assays, membrane preparations were incubated at 0° C. for 45 minutes. […] The radioactivity retained on the filters was then determined in a liquid scintillation counter (Packard Tri-Carb 1600 TR).
This procedure aims to obtain a saturation curve with less expenditure of radioactive substances and biological materials. […] This can be seen by the gradual decrease of radioactivity retained on the filters is detected by the counter liquid scintillation. […]

α1B adrenoceptors = molecular target: T2, α1B adrenoceptors (Rattus norvegicus, UniProt P15823); test: Binding of [3H]-prazosin to α1B adrenoceptors (rat liver membranes); details: saturation assay, one site
T2 construct: from tissue; host or cells: rat liver membranes
Protocol: Following the protocol described previously in the literature membrane preparations from rat liver homogenates were obtained. Such membrane preparations are enriched in the adrenoceptor subtype α1B. The tissues obtained as described above (4 Rat livers corresponding to ˜30 g) were thawed and homogenized perforated similarly performed for rabbit liver. The homogenate obtained was filtered through four layers of gauze and then subjected to centrifugation 5,000×g for 20 minutes at 4° C., yielding a supernatant which was subsequently ultracentrifuged at 100,000×g for 60 minutes at 4° C., obtaining a pellet. This pellet was resuspended in buffer free of NaCl and subjected to a further […] under the same conditions.
Binding assays were standardized for α1B adrenoceptors in the same way adrenoceptor binding assays for α1A according to the literature, i.e. saturation and competition assays were performed on membrane preparations from rat liver, in this case using […] protein per tube contained […] suspension, in addition to various concentrations of LDT's (10^−9-10^−6 M).

pKd (α1A adrenoceptors; read-out: Kd, high affinity site): 9.34
pKd (α1A adrenoceptors; read-out: Kd, low affinity site): 7.25
pKd (α1B adrenoceptors): 9.47
Substance: [3H]-prazosin [reference compound]

pKd: −log10 of the molar value. Like-named read-outs stand apart in the source and are kept apart here.
